Source: patent publication US7964630B2, “Topical application agents against mimic and age-related wrinkles” (DSM IP Assets B.V., priority 2004, dated 2011)

Test system: co-culture model of human muscle cells and neurons from the spinal marrow of rat embryos
Test: Efficacy test: frequency of muscle contractions in a nerve-muscle co-culture model
Type: cell-based, human (myoblasts), rat (embryo spinal explants)
Conditions: contractions counted for 30 seconds, compared to number before incubation, means of 3 measurements; for Variation Δ [in %] of the number of muscle contractions (1 min): 1 minute after incubation; for Variation Δ [in %] of the number of muscle contractions (2 h): 2 hours after incubation; for Variation Δ [in %] of the number of muscle contractions (48 h): 48 hours after incubation
Experimental: Culture conditions: 37° C., 5% CO2 In order to test the efficacy of the compounds of the present invention, a co-culture model of human muscle cells on one hand and neurons from the spinal marrow of rat embryos on the other hand was established. Normal human muscle cells (myoblasts) were cultured in gelatine-coated 24-well plates until a monolayer of myofibrils (from fused muscle cells) had formed. Afterwards, an explant of the spinal marrow of a 13 day-old rat embryo with dorsal root ganglia was placed on the muscle cell monolayer. After one day of co-culture, the first axons were seen to grow out of the explant to come in contact with muscle cells. The first contractions appeared after 5 days. […] At this stage of development, the myofibrils performed regular contractions and the model was used for the tests.

Substance: H-β-Ala-Pro-Dab-NHBzl.2TFA
- Variation Δ [in %] of the number of muscle contractions (1 min) (0.1 mM): 86%
- Variation Δ [in %] of the number of muscle contractions (2 h) (0.1 mM): 4%
- Variation Δ [in %] of the number of muscle contractions (48 h) (0.1 mM): 4%
- Variation Δ [in %] of the number of muscle contractions (1 min) (0.5 mM): 96%
- Variation Δ [in %] of the number of muscle contractions (2 h) (0.5 mM): 0%
- Variation Δ [in %] of the number of muscle contractions (48 h) (0.5 mM): 0%
- Variation Δ [in %] of the number of muscle contractions (1 min) (1.0 mM): 24%
- Variation Δ [in %] of the number of muscle contractions (2 h) (1.0 mM): 0%
- Variation Δ [in %] of the number of muscle contractions (48 h) (1.0 mM): 0%
